# Literature values as cited in patent US9403784B1, “Fumarate compounds, pharmaceutical compositions thereof, and methods of use” (priority 2015, dated 2016).
# System: ALS
smiles,measurement,value
Nc1nc2ccc(OC(F)(F)F)cc2s1 [riluzole],extension of survival,about three
